How the values of this data set were obtained:
The solubility of the organic carboxylic acid strontium salts, were measured in water. The solubility of these salts was also measured as a function of temperature. This was performed by incubating the saturated solutions of the salts in temperature controlled incubators.
The buffered solutions were immersed into a bath of water temperature controlled at either room temperature (22-24° C.), at 30° C. or at 40° C. […] In order to eliminate any reminiscent strontium chloride influence on the determination of solubility, all the precipitate was collected at the bottom of the test tubes and the solutions above the precipitate were carefully removed and substituted by fresh solutions. […] From these solutions, the dissolved proportions of the strontium salt were collected in volumes of 1 mL at the specified temperature. The solutions were diluted to 50 mL before analysis by Flame Atomic Absorption Spectrometry (F-AAS).
Two methods were used for quantification of strontium in solutions: Flame Atomic Absorption Spectrometry (F-AAS), and the more sensitive inductively-coupled-plasmamass spectrometry (ICP-MS).
The solubilities were investigated as described above, and strontium content in the saturated solutions determined as described here below.
Some of the very soluble strontium salts were further diluted before analysis by F-AAS. The measurements were performed by using a Perkin-Elmer 2100 equipped with a hydrogen lamp for correction of the background signal. Strontium was measured at a slit with of 0.2 nm, the wavelength was 460.8 nm operated at an energy of 58 and a current of 8 mA.
This analysis was performed using a Perkin Elmer Elan 5000 system equipped with a cross-flow nebulizer. The power was set at 1000 W and the Argon-gas flow was 12 L/min and 0.8 L/min of the torch and plasma gas, respectively.

As for “strontium alpha-ketoglutarate [α-ketogluterate]”, the “SOLUBILITY AT 40° C., In water” value was 3534 mg/L and the “SOLUBILITY AT ROOM TEMPERATURE (22-24° C.), In water” value is recorded as 1316 Mg/L. In addition, the “SOLUBILITY AT ROOM TEMPERATURE (22-24° C.), pH 7.5” value (pH 7.5) is given as 2252 Mg/L.
